For orientation: EC50 means the midpoint of the concentration-response curve. A lower EC50 goes with a more potent agent.

From ChEMBL document CHEMBL1133093, “The PPARs: from orphan receptors to drug discovery” (J Med Chem, 2000) come the findings set out here.

Molecules are shown by their SMILES.

In this assay the target is T1, Peroxisome proliferator-activated receptor alpha (Homo sapiens, UniProt Q07869).
T1 sequence (Q07869 whole entry): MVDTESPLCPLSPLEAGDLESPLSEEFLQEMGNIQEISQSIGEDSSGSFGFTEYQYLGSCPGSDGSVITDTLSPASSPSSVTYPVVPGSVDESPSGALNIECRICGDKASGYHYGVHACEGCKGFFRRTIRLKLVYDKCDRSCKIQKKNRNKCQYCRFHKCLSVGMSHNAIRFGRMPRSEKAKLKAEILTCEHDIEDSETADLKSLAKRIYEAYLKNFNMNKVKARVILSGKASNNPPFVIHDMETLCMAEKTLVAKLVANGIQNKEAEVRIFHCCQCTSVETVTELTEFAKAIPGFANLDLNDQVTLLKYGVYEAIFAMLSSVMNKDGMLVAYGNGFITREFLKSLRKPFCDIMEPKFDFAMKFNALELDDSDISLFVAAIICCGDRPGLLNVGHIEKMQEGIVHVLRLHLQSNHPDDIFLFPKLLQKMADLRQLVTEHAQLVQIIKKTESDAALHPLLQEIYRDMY

Turning to `Cc1oc(-c2ccccc2)nc1CCOc1ccc(C[C@H](Nc2ccccc2C(=O)c2ccccc2)C(=O)O)cc1` [FARGLITAZAR], the EC50 came to 450 nM.
